Patent publication US7390500B2

What was measured:
[1] = Saturation solubility of fentanyl in microreservoir liquids
[2] = Solubility studies of the active substance in amine-resistant polysiloxane polymers; details: hydrophobic polymers, amine-resistant polysiloxanes

CCC(=O)N(c1ccccc1)C1CCN(CCc2ccccc2)CC1
Saturation solubility of fentanyl ([1]; in 1,3-Butanediol): 10 % w/w | Saturation solubility of fentanyl ([1]; in Diethylene glycol diethyl ether): 26 % w/w | Saturation solubility of fentanyl ([1]; in Dipropylene glycol): 18 % w/w | Saturation solubility of fentanyl ([1]; in N-Methylpyrrolidone): 26 % w/w | Saturation solubility of fentanyl ([1]; in Transcutol (Diethylene glycol monoethyl ether)): 25 % w/w | solubility in polymers [2]: less than 0.5 % by weight

This is a selection: effects in other tests are not listed, and their absence says nothing.
